Experimental data as given in patent US20050289662A1, “Reporter system for plants” (published 2005).
This is a selection: effects in other tests are not listed, and their absence says nothing.

System: E. Coli (C), Pseudomonas putita (PU), Pseudomonas sydngae (SY), Pseudomonas fluorescens (FL)
Test: Bacterial cells grown on LB plates with increasing concentrations of TNT and RDX

Structure (SMILES)	resistance of bacteria towards the explosives
O=[N+]([O-])N1CN([N+](=O)[O-])CN([N+](=O)[O-])C1	PU and FL show more resistance
Cc1c([N+](=O)[O-])cc([N+](=O)[O-])cc1[N+](=O)[O-]	PU and FL show more resistance
